Data from patent US7732437B2, “Use of anti-histaminics for acute reduction of elevated intracranial pressure” (Janssen Pharmaceutica, NV., priority 2001, dated 2010).

Amino acid sequences for entries named in this document (tags omitted).
UniProt P47747, whole entry: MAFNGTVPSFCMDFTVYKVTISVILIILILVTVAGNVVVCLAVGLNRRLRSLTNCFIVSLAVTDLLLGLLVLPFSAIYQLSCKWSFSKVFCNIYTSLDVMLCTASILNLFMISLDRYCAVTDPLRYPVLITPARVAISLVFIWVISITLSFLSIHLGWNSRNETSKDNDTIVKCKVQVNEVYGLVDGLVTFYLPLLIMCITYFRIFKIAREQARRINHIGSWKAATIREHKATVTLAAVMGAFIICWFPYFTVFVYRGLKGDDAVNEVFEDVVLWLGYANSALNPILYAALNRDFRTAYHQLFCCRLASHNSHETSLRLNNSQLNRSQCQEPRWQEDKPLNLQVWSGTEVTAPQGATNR

Molecular target: T1, histamine H2-receptor (Cavia porcellus, UniProt P47747)
T1 construct: using guinea pig striatum cells and [^125I]APT as the radioligand; from tissue; host or cells: guinea pig striatum
Test: Radioligand binding, histamine H2-receptor, guinea pig striatum cells, [125I]APT
Details: [125I]APT 0.1 nM, 150 min at 22° C., read-out: H2-antagonist activity (pIC50) (converted)

IC50: 1.26 µM
SMILES: CN/C(=N/CCSCc1nc[nH]c1C)NC#N [Cimetidine, cimetidine]
